Patent US20110319339A1, “NEUROTENSIN-DERIVED BRANCHED PEPTIDES AND USES THEREOF” (priority 2008, published 2011)
Like-named read-outs stand apart in the source and are kept apart here.

Tests used:
[1] = Classification of functionalized branched peptides as fast or slow/non releasing; conditions: ability to release the functional unit from the carrier peptide
PANC-1 cells = assay: Peptide internalization and drug release in PANC-1 cells, MALDI-Tof MS of supernatant and lysed cells; conditions: 100 μM, 37° C.; for state of conjugate in the supernatant or in lysate: ether conjugated drugs
Excerpt: Cells were centrifuged, washed and then lysed in water after freezing and thawing.

[2] = phosphate buffer pH=7.4, 37° C.

Substance | releasing class of the adduct [1] | course of the conjugate in cell medium and cell lysate (PANC-1 cells) | 6-MP released ([2]; after 30 min, 5 equivalents of GSH) | 6-MP released ([2]; after 135 min, 1 equivalent of GSH) | time of appearance in cell lysate (PANC-1 cells) | time of maximum concentration in cell lysate (PANC-1 cells) | state of conjugate in the supernatant or in lysate (PANC-1 cells) | time of drug release by hydrolysis of ester bond (PANC-1 cells)
NT(8-13)4-PEG-K(PEG-Fluorescein) [NT4(8-13)-Fluo] | slow releasing | – | – | – | – | – | – | –
NT(8-13)-betaAla-K(PEG-5-fluorodeoxyuridine) [NT4(8-13)-5-FdU] | fast releasing | decreased gradually in cell lysate and cell medium | – | – | – | – | – | –
NT(8-13)-betaAla-K(PEG-6-mercaptopurine) [NT4(8-13)-6-MP] | fast releasing | – | 100% | 86% | – | – | – | –
NT(8-13)-betaAla-K(PEG-Combretastatin ether) [NT4(8-13)-O—CBTST] | slow releasing | decreased gradually in cell medium while increasing in cell lysate | – | – | 1 h | 48 h | intact | –
NT(8-13)-betaAla-K(PEG-Combretastatin) [NT4(8-13)-CBTST] | fast releasing | – | – | – | – | – | – | 2 h
NT(8-13)-betaAla-K(PEG-Monastrol ether) [NT4(8-13)-O-Mon] | slow releasing | decreased gradually in cell medium while increasing in cell lysate | – | – | 1 h | 48 h | intact | –
NT(8-13)-betaAla-K(PEG-Monastrol) [NT4(8-13)-Mon] | fast releasing | – | – | – | – | – | – | 2 h
